In ChEMBL document CHEMBL3244325, “Diastereoisomeric N-tetrahydrofurfurylnoroxymorphones with opioid agonist--antagonist properties” (J Med Chem, 1977):

Legend:
[1] = species: Cavia porcellus; assay: Antagonist activity at opioid receptor in myenteric plexus of guinea pig ileum relative to nalorphine; type: tissue-based
[2] = species: Cavia porcellus; assay: Agonist activity at opioid receptor in myenteric plexus of guinea pig ileum relative to morphine; type: tissue-based

SMILES: CC(C)=CCN1CCC2(C)c3cc(O)ccc3CC1C2C.Cl (configuration not stated) [PENTAZOCINE HYDROCHLORIDE]
- Ratio [1]: 0.3
- Ratio [2]: 0.27
